According to patent US20110224245A1, “Treatment Of Neurological Disorders Using Huperzine” (President and Fellows of Harvard College, priority 2008, published 2011):

How the values were obtained:
Assay type in all cases: in vivo
[1] = system: formalin-induced paw-licking; experiment: Formalin test (paw licking) in mice; conditions: 1 mg/kg i.p., individual animals
Experimental: The formalin test for antinociceptive activity is described in numerous publications, e.g., Hunskaar, S., O. B. Fasmer, and K. Hole, J. Neurosci. […] The formalin test is accepted as an art recognized model of persistent clinical pain.
Male Swiss Webster NIH mice (20-30 g; Harlan, San Diego, Calif.) were used in the experiments described herein. Food was withdrawn on the day of experiment. Mice were placed in Plexiglass jars for at least 1 hour to accommodate to the environment. Following the accommodation period, mice were weighed and given either a huperzine compound administered intraperitoneal (i.p.) or oral (p.o.), or the appropriate volume of vehicle (10% Tween-80). Fifteen minutes after the i.p. dosing, and 30 minutes after the p.o. dosing mice were injected with formalin (20 μL of 5% formaldehyde solution in saline) into the dorsal surface of the right hind paw. Mice were transferred to the Plexiglass jars and monitored for the amount of time spent licking or biting the injected paw. Periods of licking and biting were recorded in 5 minute intervals for 40 minutes after the formalin injection. All experiments were done in a blinded manner. The early phase (acute) of the formalin response is measured as licking/biting between 0-5 minutes, and the late phase (inflammatory) is measured from 10-40 minutes. Differences between vehicle and drug treated groups are analyzed by one-way analysis of variance (ANOVA). A P value<0.05 is considered significant.
Fifteen minutes after the i.p. dosing, mice were injected with formalin (20 μL of 5% formaldehyde solution in saline) into the dorsal surface of the right hind paw. Periods of licking and biting were recorded in 5 minute intervals for 40 minutes after the formalin injection as shown below in Tables 1 and 2. All experiments were done according to the art-recognized Anticonvulsant Screening Program of the NINDS at the University of Utah.
Duration of paw licking in the tables below is expressed in seconds.

[2] = system: rats; experiment: Toxicity (TOX) / minimal motor impairment, rats, oral; conditions: 1 mg/kg oral
[3] = system: 6 Hz seizures; experiment: 6 Hz seizure test, mice i.p.; conditions: IP, 1 h
Experimental: HupA was also evaluated for its ability to modify tonic extension, minimal clonic, limbic seizures in the maximal electroshock seizure (MES), subcutaneous pentylenetetrazol (sc PTZ), and 6 Hz seizure tests following intraperitoneal administration. These three tests are highly predictive of efficacy against human generalized tonic-clonic (MES), generalized myoclonic (sc PTZ), and refractory limbic (6 Hz) seizures, respectively. In addition, it was tested for its ability to prevent the expression of Stage V seizures in the hippocampal kindled rat model of partial epilepsy.
Male, 18-25 g CF1 mice and 100-125 g Sprague-Dawley rats (Charles River Laboratories, Wilmington, Mass.) were used as the experimental animals. Animals were pretreated intraperitoneally (i.p.) with increasing doses of HupA and tested at various times after administration for protection against tonic extension (MES test), minimal clonic (s.c. PTZ test), limbic (6 Hz), or secondarily generalized (kindled rat) seizures. Seizure testing was carried out as follows. For the MES and 6 Hz tests, a drop of anesthetic/electrolyte solution (0.5% tetracaine hydrochloride in 0.9% saline) was applied to the eyes of each animal prior to placement of the corneal electrodes. The electrical stimulus in the MES test was 50 mA, 60 Hz, for mice and 150 mA, 60 Hz, for rats, delivered for 0.2 sec (White et al., 2002, In R. H. Levy et al., eds. Antiepileptic Drugs, 5th edition, p. 36-48, Philadelphia: Lippincott Williams & Wilkins). The ability of the test substance to prevent seizures induced by 6 Hz corneal stimulation (32 mA, 3 sec duration) was assessed at various times after i.p. administration of 1 mg/kg HupA For assessment of hippocampal kindling, HupA (1 mg/kg, i.p.) was administered. The ability of the compound to block the expression of hippocampal kindled seizures was evaluated using the rapid hippocampal kindling model (White et al., 2002). Animals not displaying secondarily generalize seizures were considered protected.
Quantitative data was obtained for Huperzine A in a 6 Hz model as described above (Barton et al., 2001, Epilepsy Res. 47:217-227) using three levels of electrical stimulation.

## C/C=C1\[C@H]2C=C(C)C[C@]1(N)c1ccc(=O)[nH]c1C2 [Huperzine A]
[1]; 0 min
  Duration of mice paw licking: 0.00 s
[1]; 5 min
  Duration of mice paw licking: 0.00 s
[1]; 10 min
  Duration of mice paw licking: 0.00 s
[1]; 15 min
  Duration of mice paw licking: 0.00 s
[1]; 20 min
  Duration of mice paw licking: 0.00 s
[1]; 25 min
  Duration of mice paw licking: 0.00 s
[1]; 30 min
  Duration of mice paw licking: 0.00 s
[1]; 35 min
  Duration of mice paw licking: 0.00 s
[1]; 40 min
  Duration of mice paw licking: 0.00 s
[2]; 0.25 h
  TOX N/F, time course: 0/4
[2]; 0.5 h
  TOX N/F, time course: 0/4
[2]; 1.0 h
  TOX N/F, time course: 0/4
[2]; 2.0 h
  TOX N/F, time course: 0/4
[2]; 4.0 h
  TOX N/F, time course: 0/4
[2]; 6.0 h
  TOX N/F, time course: 0/4
[3]; 22 mA, 0.09 mg/kg
  N/F (ED50 Biological Response): 1/8
[3]; 22 mA, 0.175 mg/kg
  N/F (ED50 Biological Response): 2/8
[3]; 22 mA, 0.35 mg/kg
  N/F (ED50 Biological Response): 5/8
[3]; 22 mA, 0.7 mg/kg
  N/F (ED50 Biological Response): 7/8
[3]; 32 mA, 0.2 mg/kg
  N/F (ED50 Biological Response): 0/8
[3]; 32 mA, 0.3 mg/kg
  N/F (ED50 Biological Response): 2/8
[3]; 32 mA, 0.415 mg/kg
  N/F (ED50 Biological Response): 7/8
[3]; 32 mA, 0.83 mg/kg
  N/F (ED50 Biological Response): 8/8
